Measurements published in PubChem BioAssay AID1347041 (National Center for Advancing Translational Sciences (NCATS), 2019).
Only a part is listed here, and it is no random draw. The source made the active and inactive calls. Cut-off read from the data, not from the text of the source: active = activity change below about -30%; inconclusive = mostly about -25% to -30%; inactive = weaker than that.

The compounds below were run against L-lactate dehydrogenase A chain (Homo sapiens) (UniProt P00338) (assay: qHTS assay for inhibitors of human lactate dehydrogenase). Conditions: purified LDHA, NADH/diaphorase-resazurin fluorescence; active compounds read low.
Outline: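 Human LDH5 (2 nM) was incubated with 0.06 mM NADH and 0.2 mM pyruvate for 5 min at room temperature in Tris pH 7.4. Remaining NADH was coupled through diaphorase/resazurin, and resorufin fluorescence was read at 0 and 20 min.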
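Note: values are at about 110 or 230 µM; plate controls were DMSO wells for no effect and wells without enzyme for full effect.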

Structure (SMILES) | activity change
Cc1nn(-c2ccccc2)c2c1P(=O)(N1CCOCC1)N(C)C(c1ccccc1)=N2 (stereo not drawn) | inactive: -5.17%
COc1cc([N+](=O)[O-])ccc1[N+](=O)[O-] | inactive: 1.17%
CC1CCC(C(C)C)C(OP(=O)(Nc2ccccn2)c2ccccc2)C1 (stereo not drawn) | inactive: 1.57%
Cc1ccc(C(=O)OC2CN3CCC2CC3)cc1 (stereo not drawn) | inactive: -1.38%
O=C(/C=C/c1ccccc1)OC1CN2CCC1CC2 (stereo not drawn) | inactive: -5.75%
CCCC1OP(=O)(Nc2ccccc2)OCC1CC (stereo not drawn) | inactive: -7.9%
CN(C)C1(CNC(=O)c2ccc(S(C)(=O)=O)cc2)CCCCC1 | inactive: -8.96%
O=[N+]([O-])c1ccc(O)c(/C=N/Nc2ccc([N+](=O)[O-])cc2[N+](=O)[O-])c1 | inactive: -1.39%
O=[N+]([O-])c1ncn(CCn2cnc([N+](=O)[O-])n2)n1 | inactive: 0.67%
CC(=O)NC(SC(=S)N(C)C)C(Cl)(Cl)Cl (stereo not drawn) | inactive: -1.62%
O=[As](O)(c1ccccc1)c1ccc(O)cc1 | inactive: 0.617%
Nc1ccc([As](=O)(O)c2ccc([N+](=O)[O-])cc2)cc1 | inactive: -3.13%
C(Cc1nn[nH]n1)Cc1nn[nH]n1 | inactive: -14.1%
O=C(OC1CN2CCC1CC2)c1cccc(Cl)c1 (stereo not drawn) | inactive: -1.04%
Nc1ccc(CCCCOc2ccccc2)cc1 | inactive: -1.31%
COc1ccc(N)c([N+](=O)[O-])c1[N+](=O)[O-] | inactive: 9.68%
O=P(Nc1ccccn1)(c1ccc(Br)cc1)c1ccc(Br)cc1 | inactive: 1.49%
CN(C)C1(CNC(=O)c2ccc(Cl)c(S(N)(=O)=O)c2)CCCCC1 | inactive: -4.53%
O=P(Nc1nc2ccccc2s1)(c1ccccc1)c1ccccc1 | inactive: -2.75%
C[C@H]1OP(=O)(Oc2ccccc2)[C@H](O)[C@H](O)[C@H]1N=[N+]=[N-] (stereo partly drawn) | inactive: 0.517%
CC(C)C(=O)NC(Sc1ccccc1)C(Cl)(Cl)Cl (stereo not drawn) | inactive: 0.319%
O=P(Nc1nccs1)(c1ccccc1)c1ccccc1 | inactive: -3.53%
N#Cc1c(-c2ccc(-c3no[n+]([O-])c3C#N)s2)no[n+]1[O-] | inactive: -0.014%
c1nnnn1CCn1cnnn1 | inactive: -5.36%
N#C/C(=C\c1ccc(N(CCBr)CCBr)cc1)C(N)=O | inactive: 0.207%

Structure (SMILES) | activity change
CC(=O)c1ccc(N2CC2c2ccncc2)cc1 (stereo not drawn) | inactive: -5.84%
COC(=O)C1(C)COP(=O)(NCc2ccccc2)OC1 (stereo not drawn) | inactive: -6.33%
Cc1ccccc1CN(C)C(=O)COC(=O)C(O)(c1ccccc1)c1ccccc1 | inactive: 0.166%
C[C@@H]1C=CCP(=O)(Oc2ccccc2)O1 (stereo partly drawn) | inactive: -4.26%
C[C@H]1OP(=O)(Oc2ccccc2)C[C@@H]2O[C@@H]21 (stereo partly drawn) | inactive: -3.15%
CC(=O)Nc1ccc([As](=O)(O)O)c(O)c1 | inactive: 3.56%
CC(=O)Nc1ccc(Oc2c([N+](=O)[O-])cc([N+](=O)[O-])cc2[N+](=O)[O-])cc1 | inactive: 1.48%
O=P1(Nc2nc3ccc(Cl)cc3s2)COc2ccccc2O1 (stereo not drawn) | inactive: 15.6%
CCOc1ccc(C2=NCC(CBr)S2)cc1 (stereo not drawn) | inactive: -1.73%
CCc1cc(O)c([N+](=O)[O-])c(C)c1[N+](=O)[O-] | inactive: 7.07%
CC(C)(C)C(=O)NC(Sc1ccccc1)C(Cl)(Cl)Cl (stereo not drawn) | inactive: -4.75%
COC(=O)c1cc2c(s1)N=C(c1ccccc1)N(C)P2(=O)N1CCOCC1 (stereo not drawn) | inactive: -3.74%
CCn1nc(C(=O)NCC2(N3CCCCC3)CCCCC2)c2ccccc2c1=O | inactive: -3.6%
Cc1ccc(OP(=O)(Nc2ccccn2)Oc2ccc(C)cc2)cc1 | inactive: -7.15%
CC(=O)NC(SC(=S)N(CC(C)C)CC(C)C)C(Cl)(Cl)Cl (stereo not drawn) | inactive: 1.07%
O=C(OC1CN2CCC1CC2)c1ccccc1 (stereo not drawn) | inactive: -6.87%
CCC(=O)N1C2C3N(C(=O)CC)C1C1N(C(=O)CC)C(C(N1C(=O)CC)N3C(=O)CC)N2C(=O)CC | inactive: -4.83%
Cc1ccccc1OP(=O)(Nc1ccccn1)Oc1ccccc1C | inactive: -0.365%
CC(NC(=O)COC(=O)C(O)(c1ccccc1)c1ccccc1)c1ccccc1 (stereo not drawn) | inactive: -2.19%
CN(C)C(=O)Oc1noc2ccccc12 | inactive: -15.6%
O=c1c2cc([N+](=O)[O-])ccc2[nH]c2c([N+](=O)[O-])cc([N+](=O)[O-])cc12 | inactive: 12.4%
CCNC(=S)/N=C(\N)N[N+](=O)[O-] | inactive: 1.14%
O=C(NC1CCS(=O)(=O)C1)NP(=S)(Oc1ccccc1)Oc1ccccc1 (stereo not drawn) | inactive: 0.0551%
c1ccc(-c2nn[nH]n2)c(-c2nn[nH]n2)c1 | inactive: -1.99%
Cc1ccc(NP(=O)(Oc2cccc(C)c2)Oc2cccc(C)c2)nc1 | inactive: -6.26%

Structure (SMILES) | activity change
O=P1(N(CCCl)CCCl)OCCC2CCCCN21 (stereo not drawn) | inactive: -4.14%
CCN(N=Nc1nonc1N)c1nonc1N | inactive: -3.99%
Nc1cccc2ccc([As](=O)(O)O)cc12 | inactive: 12.3%
O=C(O)c1ccccc1[As](=O)(O)O | inactive: -9.61%
BrCCNCCc1ccncc1 | inactive: -7.12%
CC(=O)Nc1ccc([As](=O)(O)O)cc1 | inactive: -5.5%
CCCC1OP(N)(=O)OCC1CC (stereo not drawn) | inactive: -4.8%
CN(C)P(=O)(N(C)C)n1c(Nc2ccccc2)nnc1-c1ccccc1 | inactive: 0.0215%
O=P(Nc1nc2ccc(Cl)cc2s1)(c1ccccc1)c1ccccc1 | inactive: -9.5%
CCOP(=O)(Nc1ccccc1)OCC | inactive: -1.8%
Cc1cc(SC(NC(=O)c2ccc(F)cc2)C(Cl)(Cl)Cl)ncn1 (stereo not drawn) | inactive: -3.4%
Cc1ccc(NP(=O)(Oc2ccccc2F)Oc2ccccc2F)nc1 | inactive: -7.13%
CN(C(=O)Cc1ccc(Cl)c(Cl)c1)[C@H]1CCCC[C@@H]1N1CCCC1 | inactive: 1.26%
CC(C)CC(=O)NC(Sc1ccc(Cl)cc1)C(Cl)(Cl)Cl (stereo not drawn) | inactive: -6.48%
Nc1cc(N)c2nonc2c1[N+](=O)[O-] | inactive: 18.4%
Oc1ccccc1CNc1ccccn1 | inactive: -2.28%
O=C(NC(Sc1ccncn1)C(Cl)(Cl)Cl)c1ccccc1 (stereo not drawn) | inactive: -1.41%
O=[N+]([O-])C1C(O)C(O)C([N+](=O)[O-])C(O)C1O (stereo not drawn) | inactive: -3.18%
O=[N+]([O-])c1cc2c(cc1[N+](=O)[O-])OCO2 | inactive: 2.88%
NC(=O)c1cc([N+](=O)[O-])cc([N+](=O)[O-])c1N | inactive: -1.33%
CN(C(=O)Cc1ccc(Cl)c(Cl)c1)[C@H]1CCCC[C@H]1N1CCCC1 | inactive: -8.76%
Cc1ccc(N/C(=N/P(=O)(N2CCOCC2)N2CCOCC2)N2CCOCC2)cc1 | inactive: -0.0122%
COc1ccccc1OP(=O)(Nc1ccc(C)cn1)Oc1ccccc1OC | inactive: -8.66%
Cc1ccc(OP(=O)(Nc2nccs2)Oc2ccc(C)cc2)cc1 | inactive: -4.01%
Clc1ccc(Cl)c(NC2=NCC(CBr)S2)c1 (stereo not drawn) | inactive: -5.38%

Structure (SMILES) | activity change
CN1CCCC(OC(=O)C(c2ccccc2)c2ccccc2)C1 (stereo not drawn) | inactive: -0.199%
Nc1ccc([As](=O)(O)c2ccc(N)cc2)cc1 | inactive: 1.08%
C[N+]1=C2C=CC=CC=C2SC12C([N+](=O)[O-])=CC([N+](=O)[O-])=C[C-]2[N+](=O)[O-] (stereo not drawn) | inactive: 6.16%
CCN(/C(=N/P(=O)(N1CCOCC1)N1CCOCC1)N1CCOCC1)c1ccc(OC)cc1 | inactive: -1.11%
CC(C)=N/N=C(\N)N[N+](=O)[O-] | inactive: -17.1%
CC(C)c1nc(Nc2ccccc2)n(P(=O)(N(C)C)N(C)C)n1 | inactive: -3.12%
CN(C)C(=O)OCCc1n(C)cc[n+]1C | inactive: -4.01%
c1cc(-c2nn[nH]n2)ccc1-c1nn[nH]n1 | inactive: 6.14%
CC1CCN(C(=O)Oc2c(Cl)cc(Cl)c3cccnc23)CC1 | inactive: -3.88%
COc1ccc(C2=NCC(CBr)S2)cc1 (stereo not drawn) | inactive: -12.1%
O=[N+]([O-])c1cccc2n[nH]nc12 | inactive: -1.26%
CC(=O)N1C2C3N(C(C)=O)C1C1N(C(C)=O)C(C(N1C(C)=O)N3C(C)=O)N2C(C)=O | inactive: -10.4%
Cc1ccc(NP(=O)(Oc2ccccc2)Oc2ccccc2)nc1 | inactive: -0.789%
CCc1nc2c(n1)c1c(non1O)c1c2no[n+]1[O-] | inactive: 33.9%
O=[N+]([O-])c1cc([N+](=O)[O-])c(CCNc2ccccc2)c([N+](=O)[O-])c1 | inactive: 8.06%
CC(C)(C)C(=O)NC(Sc1ccncn1)C(Cl)(Cl)Cl (stereo not drawn) | inactive: 0.926%
O=[N+]([O-])c1ncn(CCn2ncnc2[N+](=O)[O-])n1 | inactive: 4.84%
O=[N+]([O-])c1cccc(NC2=NCC(CBr)S2)c1 (stereo not drawn) | inactive: -0.212%
COC(=O)C1(C)COP(=O)(Nc2ccccc2)OC1 (stereo not drawn) | inactive: -9.48%
O=C(O)CNc1ccc([As](=O)(O)O)cc1 | inactive: -1.3%
O=P1(N(CCCl)CCCl)OCCCS1 (stereo not drawn) | inactive: -17.2%
O=C(Nc1cc([As](=O)(O)O)ccc1O)c1ccccc1 | inactive: -3.62%
O=P(/N=c1/nc(-c2ccccc2)n(-c2ccccc2)s1)(Nc1ccccc1)Nc1ccccc1 | inactive: -23.1%
